The values that follow come from ChEMBL document CHEMBL3352357, “Synthesis and pharmacological evaluation of 5-pyrrolidinylquinoxalines as a novel class of peripherally restricted κ-opioid receptor agonists” (J Med Chem, 2014).

Sequences of proteins named here, by UniProt entry; tags and fusion partners are left off.
UniProt P41144, whole entry: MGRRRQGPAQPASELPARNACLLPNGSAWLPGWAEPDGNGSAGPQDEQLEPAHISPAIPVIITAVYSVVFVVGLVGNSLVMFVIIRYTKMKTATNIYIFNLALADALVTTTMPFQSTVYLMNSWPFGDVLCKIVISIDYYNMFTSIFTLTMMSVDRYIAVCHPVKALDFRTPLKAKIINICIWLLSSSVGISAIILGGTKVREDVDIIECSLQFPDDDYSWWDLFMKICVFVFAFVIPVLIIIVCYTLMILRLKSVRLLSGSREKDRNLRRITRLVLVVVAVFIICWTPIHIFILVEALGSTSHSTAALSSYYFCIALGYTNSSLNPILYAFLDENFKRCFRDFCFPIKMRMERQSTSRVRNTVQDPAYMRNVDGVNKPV

Test [1] has as its target Kappa-type opioid receptor (Cavia porcellus, UniProt P41144). Briefly: Displacement of [3H]U-69593 from kappa opioid receptor in guinea pig brain membranes after 2 hrs by scintillation counting analysis. It is filed as cell membranes, Membrane. Background: In a radioligand displacement assay an active substance lowers the binding of a labelled ligand.
For test [2], the system named is Mus musculus. Briefly: Analgesic activity in male icv dosed NMRI mouse assessed as 16 mN von frey filaments-induced hyperalgesia treated after 5 mins challenged with mustard oil measured after 20 to 40 mins.
In test [3] the test system is Mus musculus. Briefly: Analgesic activity in male NMRI mouse assessed as inhibition of phenylquinone-induced writhing at 3.16 mg/kg, iv after 10 mins challenged with phenylquinone (reference value: 0%).
Test [4] concerns Mus musculus. Briefly: Analgesic activity in male icv dosed NMRI mouse assessed as 1 mN von frey filaments-induced referred allodynia treated after 5 mins challenged with mustard oil measured after 20 to 40 mins.
Test [5] has as its system Mus musculus. Briefly: Analgesic activity in male NMRI mouse assessed as inhibition of phenylquinone-induced writhing at 21.5 mg/kg, iv after 10 mins challenged with phenylquinone (reference value: 0%).

Molecules are shown by their SMILES.

As usually defined, the Ki is the equilibrium dissociation constant of an inhibitor or competing ligand from its target. A low value points to a stronger hold on the target.

In test [1], `O=C(c1ccccc1)N1CCN(C(=O)Cc2ccc(Cl)c(Cl)c2)C2C(N3CCCC3)CCCC21` (stereo not given) yielded a Ki of 15 nM.

As to `O=C(Cc1ccc(Cl)c(Cl)c1)N1CCNC2CCCC(N3CCC(O)C3)C21` (racemic), the values for the ED50 in the test on Mus musculus [2] and with Mus musculus [4] were 2.16 µg and 3.31 µg, respectively. The results for the inhibition (INH) in the test with Mus musculus [3] and in the test on Mus musculus [5] were 5.1% and 93%, respectively.
